Where two headings read alike, the source gives them in different places.
Experiments:
[1] = PK after i.v. and s.c. administration to Göttingen minipig; conditions: female, Göttingen minipig and domestic LYD pig, in vivo, sc; Table 21 and 22 (minipig and domestic LYD pig); read-out: subcutaneous bioavailability (F)
Protocol: The purpose of this study was to investigate pharmacokinetic and pharmacodynamic properties after intravenous (i.v.) and subcutaneous (s.c.) administration to Gottingen Minipig and domestic LYD pig, and to estimate bioavailability after s.c. dosing. Quantitative plasma analysis of CNP and cGMP levels were performed as described in
Animals and dosing: The pharmacokinetic and pharmacodynamic studies in Gottingen Minipig or domestic LYD pig were conducted at CRO Minerva Imaging or Novo Nordisk A/S, respectively. CNP compounds were dosed to normal female 1) Gottingen minipigs 6-12 months of age with an average weight of 22 kg or 2) domestic LYD pigs 4-5 months of age with and average weight of 80 kg. At least one week prior to dosing, permanent central venous catheters were implanted for blood sampling and intravenous (i.v.) dosing. For subcutaneous (s.c.) dosing, the pigs were ultrasound scanned and the optimal injection area laterally on the neck marked by a permanent tattoo. An insulin pen (NovoPen Echo or NovoPen 4) and insulin needle (NovoFine 32G/4 mm or NovoTwist 32G/5 mm) were used for accurate deposition of the CNP formulations in the subcutaneous fat tissue with the needle perpendicular to the skin.
CNP compounds were formulated according to the principles in General Methods of Preparation—Method G and were either A) 8 mM sodium phosphate, 250 mM glycerol, pH 6.5, B) 5 mM sodium acetate, 250 mM glycerol, pH 4.0, C) 5 mM sodium acetate, 240 mM propylene glycol, pH=4.0, D) 8 mM sodium phosphate, 250 mM glycerol, pH 7.5 or E) 20 mM sodium phosphate, 223 mM propylene glycol, pH 6.0.
Intravenously, the CNP compounds were dosed at 30-60 nmol/kg to Minipig and 15-43 nmol/kg to domestic pig using formulations A-E. Subcutaneously, the CNP compounds were dosed at 55-62 nmol/kg to Minipig and 20-30 nmol/kg to domestic pig using formulations A-D.
Sampling: Blood samples of approximately 1 mL were collected pre dose and up to 14 days post dose into EDTA-coated tubes (8 mM) for cGMP and CNP compound analysis by LC-MS. In few instances, cGMP was only analysed up to 48 hours post dose after intravenous dosing in domestic LYD pig. The blood samples were kept on wet ice for maximum 30 minutes until centrifugation for 10 minutes at 4° C. and minimum 1500G, and the plasma samples were stored at −20° C. until analysis.
Plasma concentration-time profiles were analyzed by non-compartmental PK analysis using Phoenix WinNonlin 8.1, Pharsight Inc., Mountain View, CA, USA. Calculation of the area under the plasma concentration-time curve (AUC) was based on the “linear up log down” method, and uniform weighting was used for estimation of the terminal rate constant (λz). S.c. bioavailability (F) was calculated as the dose-normalized AUC (AUC/dose) after s.c. administration divided by the AUC/dose after i.v. administration. […]

[2] = PK of CNP compounds after i.v. and s.c. administration to rats; conditions: male, Sprague Dawley, in vivo, rat
Protocol: In order to assess the i.v. and s.c. PK/PD profile of CNP compounds of the present invention, formulations of CNP compounds were administered to rats, blood samples taken and exposure and cGMP response measured.
Quantitative plasma analysis of CNP-compounds: Plasma concentrations of CNP compounds were assayed by plasma protein precipitation and analysed by turboflow liquid chromatography mass spectrometry (TF-LC-MS). Calibrators were prepared by spiking either blank rat or minipig plasma with the relevant CNP compound in the range from 0.5 to 2000 nM. Calibrators, plasma blanks or study samples were prepared for TF-LC-MS by protein precipitation by adding three or four volumes of either ethanol or methanol containing 20 nM of internal standard to one volume of sample. For some compounds, formic acid was added to the precipitation reagent (the final concentration was 1% v/v). After the addition of the precipitation reagent, the mixture was centrifuged at 6200 rpm at 4° C. for 30 minutes. After centrifugation, one volume of supernatant was mixed with two volumes of water (with 1% v/v formic acid). The mixture was analysed by TF-LC-MS using a Cyclone turboflow column (0.5×50 mm, ThermoFisher Scientific) and either a XBridge Protein BEH C4 3.5 μm 300 Åor a XBridge Protein BEH C18 3.5 μm 130 Åanalytical column (both were 50×2.1 mm and obtained from Waters). […] The mass spectrometer was operated in positive ionisation mode. A TSQ Altis mass spectrometer (ThermoFisher Scientific) was used as detector in selected reaction monitoring mode (specific transition were optimised for each CNP compound). Linear calibration curves (weighed 1/×2) were used for calculating the concentration in the plasma samples. Quality control samples were included. The deviation between nominal and calculated concentration in the calibrators and quality control samples were below 15%.
Animals and dosing: Groups of 4-6 rats (male, Sprague Dawley, 350 g at arrival, Janvier, France) per compound and route of administration were dosed with a CNP compound formulated either in A) 8 mM sodium phosphate, 250 mM glycerol, 0.007% polysorbate 20, pH 7.4 or B) 5 mM sodium acetate, 250 mM glycerol, 0.007% polysorbate 20, pH 4.0 depending on the respective compound. S.c. dose was 300 nmol/kg, at a concentration of […] resulting in a dosing volume of 0.3 mL/kg, whereas i.v. dose was 100 nmol/kg, at a concentration of […] resulting in a dosing volume of 1 mL/kg. […]
Analysis: PK parameters were calculated by non-compartment analysis (NCA) using software Phoenix WinNonlin (ver. 8.1 or later, Certara) for each animal. Clearance (Cl) was calculated as: Dose/AUCinf (linear up, log down). […] Bioavailability was calculated as dose normalized AUC's: (AUC(sc)/Dose(sc))/(AUC(iv)/Dose(iv)). […]

Compound CCCC[C@@H]1NC(=O)[C@H](CO)NC(=O)CNC(=O)[C@H]([C@@H](C)CC)NC(=O)[C@H](CCCNC(=N)N)NC(=O)[C@H](CC(=O)O)NC(=O)[C@H](CC(C)C)NC(=O)[C@H](CCCCN)NC(=O)[C@H](CC(C)C)NC(=O)CNC(=O)[C@H](Cc2ccccc2)NC(=O)[C@@H](NC(=O)CNC(=O)[C@H](CCCCN)NC(=O)[C@H](CO)NC(=O)[C@H](CC(C)C)NC(=O)CNC(=O)[C@H](CCCCN)NC(=O)[C@H](CCCCN)NC(=O)[C@H](CCC(N)=O)NC(=O)[C@H](C)NC(=O)CNC(=O)[C@H](CCCCN)NC(=O)[C@H](Cc2ccc(O)cc2)NC(=O)[C@H](CCCCN)NC(=O)[C@H](CCCNC(=N)N)NC(=O)[C@H](C)NC(=O)[C@H](CCC(N)=O)NC(=O)COCCOCCNC(=O)COCCOCCNC(=O)CC[C@H](NC(=O)CCCCCCCCCCCCCCCCC(=O)O)C(=O)O)CSSC[C@@H](C(=O)O)NC(=O)CNC(=O)[C@H](CC(C)C)NC(=O)CNC(=O)[C@H](CO)NC1=O [compound 0312] has a bioavailability [1] of 7 to 13%, a clearance ([2]; iv, i.v., about 100 nmol/kg, read-out: Cl (L/hr/kg), i.v. administration (converted)) of 0.00738 L/h/kg and a half-life ([2]; iv, i.v., about 100 nmol/kg, read-out: T½ (hr), i.v. administration (converted)) of 9.4 h. The bioavailability ([2]; sc, s.c. bioavailability, about 300 nmol/kg, read-out: F (%), s.c. administration) was 20.2% and the half-life ([2]; sc, s.c., about 300 nmol/kg, read-out: T½ (hr), s.c. administration (converted)) was 8.24 h.
